# Laboratory results reported in patent US8486885B2, “β-arrestin effectors and compositions and methods of use thereof” (Trevena, Inc., priority 2008, dated 2013).
# Chains of the proteins cited; added tags and fusions are not shown.
# UniProt P25095, whole entry: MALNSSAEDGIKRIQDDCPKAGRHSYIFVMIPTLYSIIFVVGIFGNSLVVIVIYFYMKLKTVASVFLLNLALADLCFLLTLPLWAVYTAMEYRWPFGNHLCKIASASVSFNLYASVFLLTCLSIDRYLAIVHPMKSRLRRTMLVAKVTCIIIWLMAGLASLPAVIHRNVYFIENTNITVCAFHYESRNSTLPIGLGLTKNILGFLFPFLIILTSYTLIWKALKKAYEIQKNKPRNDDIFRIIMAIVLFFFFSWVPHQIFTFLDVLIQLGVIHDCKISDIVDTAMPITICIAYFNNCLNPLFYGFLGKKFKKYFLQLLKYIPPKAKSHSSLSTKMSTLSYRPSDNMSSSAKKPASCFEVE
# Experiments:
# Assay type in all cases: cell-based
# [1] = molecular target: human angiotensin 2 type 1 receptor (human AT1R) (Homo sapiens, UniProt P30556); assay: PathHunter β-arrestin-2 recruitment assay, human AT1R; conditions: PathHunter β-arrestin HEK293 cells
# Method: (§1) The proximal event in β-arrestin function mediated by GPCRs is recruitment to receptors following ligand binding and receptor phosphorylation by GRK's. Thus, the measure of β-arrestin recruitment was used to determine ligand efficacy for β-arrestin function.
# (§2) B-arrestin-2 recruitment to the human and rat angiotensin 2 type 1 receptor (human AT1R and rat AT1aR, respectively) was measured with the PathHunter™ β-arrestin assay (DiscoveRx Corporation, Fremont Calif.). Cells, plasmid(s), and detection reagent(s) were purchased from DiscoveRx, and assays were performed per manufacturer's instructions. Human AT1R and rat AT1aR were cloned into the pCMV-ProLink vector, verified by sequencing, and transfected into PathHunter β-arrestin HEK293 cells. Stably transfected clonal cell lines were selected with Hygromycin and G418. These clonal cell lines were used for all experiments.
# (§3) For assays, 25,000 cells were seeded per well in 96-well microplates in volumes of 90 μL and allowed to grow overnight at 37° C. in 5% CO2. Peptides of the invention were dissolved in deionized water to a concentration of 1 mM. […] The microplates were then incubated at room temperature for 60 minutes, and then luminescence was measured using a NOVOstar microplate reader purchased from BMG Labtech. B-arrestin-2 recruitment to receptors was measured as relative luminescence intensity expressed in arbitrary units.
# [2] = molecular target: T1, rat angiotensin 2 type 1 receptor (rat AT1aR) (Rattus norvegicus, UniProt P25095); assay: PathHunter β-arrestin-2 recruitment assay, rat AT1aR; conditions: PathHunter β-arrestin HEK293 cells
# Method: as §1, §2, §3
# [3] = molecular target: T1, rat angiotensin 2 type 1 receptor (rat AT1aR); assay: IP1 accumulation assay (IP-One Tb), rat AT1aR; parameters: expressed in transfected cells; conditions: cells expressing rat AT1aR
structure (smiles),measurement,setting,value
"CC[C@H](C)[C@H](NC(=O)[C@H](Cc1ccc(O)cc1)NC(=O)[C@@H](NC(=O)[C@H](CCCNC(=N)N)NC(=O)[C@H](C)NC)C(C)C)C(=O)N[C@@H](Cc1c[nH]cn1)C(=O)N1CCC[C@H]1C(=O)N[C@H](C)C(=O)O [SEQ ID NO:46, NMAla-Arg-Val-Tyr-Ile-His-Pro-D-Ala-OH]",human AT1R b-arrestin2 Max (%),[1],35.5%
same,rat AT1aR b-arrestin2 Max (%),[2],51.4%
same,EC50,[2]; read-out: rat AT1aR b-arrestin2 EC50,0.063 µM
same,rat AT1aR IP One EC50 (M),[3],Inactive
